These are literature values, as cited in publication PMC3048909 (2011).

Protein sequences, listed by entry. Tags and fused reporters are not part of them.
UniProt P31645, whole entry: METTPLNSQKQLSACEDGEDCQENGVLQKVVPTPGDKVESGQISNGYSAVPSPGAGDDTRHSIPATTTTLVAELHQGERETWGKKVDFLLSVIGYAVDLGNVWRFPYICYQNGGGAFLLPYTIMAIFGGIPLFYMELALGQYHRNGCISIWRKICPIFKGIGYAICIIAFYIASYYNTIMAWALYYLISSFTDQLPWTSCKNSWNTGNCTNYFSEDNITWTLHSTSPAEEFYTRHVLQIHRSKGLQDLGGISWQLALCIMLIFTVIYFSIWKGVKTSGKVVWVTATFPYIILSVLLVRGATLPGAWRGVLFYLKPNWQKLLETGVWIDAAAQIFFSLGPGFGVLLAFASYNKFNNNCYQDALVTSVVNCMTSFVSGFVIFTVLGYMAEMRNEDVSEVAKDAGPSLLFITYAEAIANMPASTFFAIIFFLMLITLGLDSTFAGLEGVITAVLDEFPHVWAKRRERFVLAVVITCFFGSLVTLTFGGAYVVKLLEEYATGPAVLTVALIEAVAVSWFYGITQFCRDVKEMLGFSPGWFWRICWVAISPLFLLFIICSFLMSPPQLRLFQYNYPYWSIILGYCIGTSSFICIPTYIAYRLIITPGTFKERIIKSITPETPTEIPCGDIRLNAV

The target in the data set is human SERT (Homo sapiens, UniProt P31645). The note with it: cited from earlier work.

Regarding `C[C@H]1NC(C)(C)CO[C@]1(O)c1cccc(Cl)c1` [(R,R)-4a, (R,R)-2-(3'-chlorophenyl)-3,5,5-trimethylmorpholine-2-ol], the “Monoamine Uptake Inhibition IC50 [3H]5HT” value was “inactive”.

In the case of `C[C@@H]1NC(C)(C)CO[C@@]1(O)c1cccc(Cl)c1` [(S,S)-4a, (S,S)-2-(3'-chlorophenyl)-3,5,5-trimethylmorpholine-2-ol], the “Monoamine Uptake Inhibition IC50 [3H]5HT” value is “inactive”.
